Results as given in PubChem BioAssay AID602143 (Vanderbilt Specialized Chemistry Center, 2011).
The list shows a part of the results, in another mix than the full data. The source made the active and inactive calls. Cut-off read from the data, not from the text of the source: active = remaining activity below about 50%; inactive = the rest.

Chains of the proteins cited; added tags and fusions are not shown. Lines headed by an entry give the natural chain unless they say otherwise; changes in a name come on top.
UniProt O14939: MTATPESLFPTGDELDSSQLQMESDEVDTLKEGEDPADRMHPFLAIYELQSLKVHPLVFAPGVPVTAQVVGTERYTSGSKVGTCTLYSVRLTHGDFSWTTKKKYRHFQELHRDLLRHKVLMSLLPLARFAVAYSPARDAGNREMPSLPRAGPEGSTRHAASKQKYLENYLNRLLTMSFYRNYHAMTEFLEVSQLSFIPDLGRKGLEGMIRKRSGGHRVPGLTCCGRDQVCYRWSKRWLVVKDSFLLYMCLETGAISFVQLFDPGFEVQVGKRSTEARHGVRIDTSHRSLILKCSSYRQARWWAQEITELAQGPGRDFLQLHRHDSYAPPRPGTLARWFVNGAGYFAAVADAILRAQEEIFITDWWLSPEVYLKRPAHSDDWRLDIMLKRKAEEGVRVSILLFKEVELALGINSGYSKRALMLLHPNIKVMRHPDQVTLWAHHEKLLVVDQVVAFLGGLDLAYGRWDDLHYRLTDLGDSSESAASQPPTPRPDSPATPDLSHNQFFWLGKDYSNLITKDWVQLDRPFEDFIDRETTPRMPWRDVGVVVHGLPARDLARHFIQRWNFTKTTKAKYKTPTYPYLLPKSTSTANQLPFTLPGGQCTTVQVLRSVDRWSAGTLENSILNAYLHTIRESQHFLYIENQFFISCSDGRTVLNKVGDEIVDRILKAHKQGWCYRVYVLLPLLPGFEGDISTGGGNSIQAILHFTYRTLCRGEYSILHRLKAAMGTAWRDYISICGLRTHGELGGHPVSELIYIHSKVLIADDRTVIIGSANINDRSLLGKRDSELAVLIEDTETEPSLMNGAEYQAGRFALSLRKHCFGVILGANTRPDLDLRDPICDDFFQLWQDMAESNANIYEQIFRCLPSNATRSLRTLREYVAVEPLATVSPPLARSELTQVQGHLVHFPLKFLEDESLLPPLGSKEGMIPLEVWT

Molecular target: Phospholipase D2 (Homo sapiens) (UniProt O14939)
Experiment: cellular phospholipase D2 activity inhibition – cell-based, HEK293, single concentration (AID 602143);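 note: tested at 200 nM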
Conditions: HEK293 cellular PLD2 activity, percent of control; stronger effect = lower value

Compound | remaining activity
C[C@@H](CN1CCC2(CC1)C(=O)NCN2c1ccccc1)NC(=O)c1ccc2ccccc2c1 | active: 27.4%
O=C(NCCN1CCC2(CC1)C(=O)NCN2c1cccc(F)c1)c1ccc2ccccc2c1 | active: 7.79%
